# Test results from patent US11819556B2, “Stabilized compositions of radionuclides and uses thereof” (RayzeBio, Inc., priority 2021, dated 2023).
# Conditions: 0.03 mCi/ml, excipient 1 mg/ml in sodium acetate-acetic acid buffer pH 5.80, 25° C.
Molecule,Percentage of ^225Ac present in [^225Ac]Ac-DOTA-TATE (0 hour after mixing) [%],Percentage of ^225Ac present in [^225Ac]Ac-DOTA-TATE (24 hours after mixing) [%],Percentage of ^225Ac present in [^225Ac]Ac-DOTA-TATE (48 hours after mixing) [%]
"CCO [10% EtOH, EtOH]",99.42,,
"O=C(O)CN(CCN(CC(=O)O)CC(=O)O)CCN(CC(=O)O)CC(=O)O [DTPA, Diethylenetriaminepentaacetic acid]",99.42,,
N[C@@H](CCC(=O)N[C@@H](CS)C(=O)NCC(=O)O)C(=O)O [L-Glutathione],99.42,,
CSCC[C@H](N)C(=O)O [L-Methionine],99.42,,
Oc1ccccc1 [Phenol],98.61,94.44,
O=C(O)c1ccccc1O [Salicylic Acid],99.42,,
Albumin: excipient at 1 mg/ml in the buffer,98.61,94.44,89.39

# Read-outs that look alike come from different tables or passages of the source.
